This note sets out measurements from patent publication US7119115B2, “Indazole or indole derivatives, and use thereof in human medicine and more particularly in oncology” (Aventis Pharma S.A., priority 2001, dated 2006).

Amino acid sequences for entries named in this document (tags omitted).
UniProt P02550, whole entry: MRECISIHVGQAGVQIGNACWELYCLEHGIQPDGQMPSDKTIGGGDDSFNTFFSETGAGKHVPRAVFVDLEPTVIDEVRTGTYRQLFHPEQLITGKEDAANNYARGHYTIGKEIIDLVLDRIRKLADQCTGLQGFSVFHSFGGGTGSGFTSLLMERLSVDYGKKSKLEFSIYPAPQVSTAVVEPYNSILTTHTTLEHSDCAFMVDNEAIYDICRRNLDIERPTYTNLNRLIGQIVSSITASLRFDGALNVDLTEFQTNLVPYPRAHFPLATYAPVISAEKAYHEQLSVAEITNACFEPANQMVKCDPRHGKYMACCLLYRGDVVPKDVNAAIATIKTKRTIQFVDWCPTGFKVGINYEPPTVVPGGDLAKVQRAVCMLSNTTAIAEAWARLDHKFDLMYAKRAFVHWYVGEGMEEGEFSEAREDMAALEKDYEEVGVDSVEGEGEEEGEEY
UniProt P02554, whole entry: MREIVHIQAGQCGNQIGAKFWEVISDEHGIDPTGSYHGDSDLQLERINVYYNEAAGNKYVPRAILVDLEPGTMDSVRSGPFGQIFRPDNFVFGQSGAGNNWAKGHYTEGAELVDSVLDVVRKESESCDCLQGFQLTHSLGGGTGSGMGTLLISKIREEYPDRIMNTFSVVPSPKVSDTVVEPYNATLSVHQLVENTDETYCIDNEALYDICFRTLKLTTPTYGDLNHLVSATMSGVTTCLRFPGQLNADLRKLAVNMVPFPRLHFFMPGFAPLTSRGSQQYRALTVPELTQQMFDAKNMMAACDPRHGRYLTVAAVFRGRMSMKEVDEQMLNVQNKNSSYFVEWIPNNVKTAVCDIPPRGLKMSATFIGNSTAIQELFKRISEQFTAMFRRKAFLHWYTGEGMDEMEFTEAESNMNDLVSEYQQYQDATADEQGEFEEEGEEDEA

A word on the IC50: it is the concentration that gives 50% inhibition.

For this assay, the target named is Tubulin (Sus scrofa, UniProt P02550+P02554). Briefly: Evaluation of the inhibition of tubulin polymerization (turbidimetry at 350 nm). The settings on record: read-out: Tubulin IC50; concentration that inhibits the rate of polymerization by 50%; pig brain tubulin 10 μM.

Take `O/N=C(/c1n[nH]c2c1C=CC(c1ccc(F)cc1)(c1ccc(F)cc1)C2)C1CC1`: the IC50 came to 9 µM.

As to `O/N=C(\c1n[nH]c2c1C=CC(c1ccccc1)(c1ccc(F)cc1)C2)C1CC1` (single isomer, unassigned), the IC50 amounted to 0.8 µM.
